Data taken from patent publication US12728168B2, “Anti-CEA antibody-exatecan analog conjugate and pharmaceutical use thereof” (JIANGSU HENGRUI MEDICINE CO., LTD., priority 2019, dated 2026).

Tests used:
[1] = system: HCT116 (without CEA expression); test: Cytotoxicity of ADCs, Cell Titer-Glo, HCT116; type: cell-based; settings: 5 days
[2] = system: MKN45 xenograft tumor model; test: In vivo inhibitory activity against tumors, MKN45 xenograft; design: species or system BALB/c nude mice; settings: 1 mpk, intraperitoneal, only once, 1 mg/kg
[3] = SD rats, intravenous 3 mg/kg, serum ELISA
[4] = Human plasma, ADC 100 μg/mL, 0 = below lower limit of detection
[5] = Monkey plasma, ADC 100 μg/mL, 0 = below lower limit of detection
[6] = BSA, ADC 100 μg/mL, 0 = below lower limit of detection

B1: Hu103-32-2-A: ADC: humanized anti-CEA antibody Hu103-32 conjugated to linker toxin 2-A; DAR differs by batch (conjugate)
heavy: EVQLVQSGSELKKPGASVKVSCKASGYTFTTYGVIWVRQAPGQGLEWMGWINTYSGVPTYASDFKGRFVFSLDTSVSTAYLQISSLKAEDTAVYYCARKKTLTTVTPWFAYWGQGTLVTVSSASTKGPSVFPLAPSSKSTSGGTAALGCLVKDYFPEPVTVSWNSGALTSGVHTFPAVLQSSGLYSLSSVVTVPSSSLGTQTYICNVNHKPSNTKVDKKV[left out - human IgG1 Fc]
light: ELVLTQSPSASASLGASVKLTCTLSSQHSTYTIEWYQQQPEKGPRYVMELKKDGSHSTGEGIPDRFSGSSSGAERYLTISSLQSEDEADYYCGVGNTIKEQFVYVFGGGTKLTVLGQPKANPTVTLFPPSSEELQANKATLVCLISDFYPGAVTVAWKADGSPVKAGVETTKPSKQSNNKYAASSYLSLTPEQWKSHRSYSCQVTHEGSTVEKTVAPTECS
IC50 ([1]; ADC batches of high DAR (6.29-7)): 78.1 nM | IC50 ([1]; ADC batches of low DAR (3.97-4.8)): 83.6 nM | Tumor inhibition rate (%) [2]: 11.39% | AUC 0-t ([3]; Antibodies): 3235 µg·h/mL | AUC 0-∞ ([3]; Antibodies): 3357 µg·h/mL | CL ([3]; Antibodies): 21.75 mL/day/kg | Cmax ([3]; Antibodies): 66.35 µg/mL | MRT 0-∞ ([3]; Antibodies): 160.14 h | Vz ([3]; Antibodies): 0.20629 L/kg | t1/2(d) ([3]; Antibodies): 6.58 days | t1/2(h) ([3]; Antibodies): 157.87 h | AUC 0-t ([3]; Intact ADC): 3609 µg·h/mL | AUC 0-∞ ([3]; Intact ADC): 3699 µg·h/mL | CL ([3]; Intact ADC): 19.70 mL/day/kg | Cmax ([3]; Intact ADC): 64.94 µg/mL | MRT 0-∞ ([3]; Intact ADC): 144.63 h | Vz ([3]; Intact ADC): 0.16009 L/kg | t1/2(d) ([3]; Intact ADC): 5.63 days | t1/2(h) ([3]; Intact ADC): 135.19 h | Percentages of toxins in plasma (%) ([4]; day 0, 37° C.): 0% | Percentages of toxins in plasma (%) ([4]; day 7, 37° C.): 0.93% | Percentages of toxins in plasma (%) ([4]; day 14, 37° C.): 0.78% | Percentages of toxins in plasma (%) ([4]; day 21, 37° C.): 1.13% | Percentages of toxins in plasma (%) ([5]; day 0, 37° C.): 0% | Percentages of toxins in plasma (%) ([5]; day 7, 37° C.): 0.38% | Percentages of toxins in plasma (%) ([5]; day 14, 37° C.): 0.92% | Percentages of toxins in plasma (%) ([5]; day 21, 37° C.): 0.96% | Percentages of toxins in plasma (%) ([6]; day 0, 37° C.): 0% | Percentages of toxins in plasma (%) ([6]; day 7, 37° C.): 0% | Percentages of toxins in plasma (%) ([6]; day 14, 37° C.): 0% | Percentages of toxins in plasma (%) ([6]; day 21, 37° C.): 0%

Like-named read-outs stand apart in the source and are kept apart here.
